Reference: patent publication US20230120211A1, “HDAC Degrader” (University of Leicester, priority 2020, published 2023)

Chains of the proteins cited; added tags and fusions are not shown. Residues count along the entry.
UniProt Q13547, whole entry: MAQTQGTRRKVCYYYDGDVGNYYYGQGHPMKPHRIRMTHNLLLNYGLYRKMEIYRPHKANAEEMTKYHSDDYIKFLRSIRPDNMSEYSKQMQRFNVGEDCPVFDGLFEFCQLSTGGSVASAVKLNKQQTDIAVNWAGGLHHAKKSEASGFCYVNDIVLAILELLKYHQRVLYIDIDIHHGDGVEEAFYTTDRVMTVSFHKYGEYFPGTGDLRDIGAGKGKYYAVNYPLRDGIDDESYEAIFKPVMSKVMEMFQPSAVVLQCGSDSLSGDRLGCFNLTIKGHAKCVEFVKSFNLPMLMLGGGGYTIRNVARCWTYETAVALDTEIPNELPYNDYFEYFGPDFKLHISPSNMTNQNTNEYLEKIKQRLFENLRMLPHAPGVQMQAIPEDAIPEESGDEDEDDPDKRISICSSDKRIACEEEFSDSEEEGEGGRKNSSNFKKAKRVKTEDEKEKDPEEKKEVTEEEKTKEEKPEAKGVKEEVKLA
UniProt Q92769, whole entry: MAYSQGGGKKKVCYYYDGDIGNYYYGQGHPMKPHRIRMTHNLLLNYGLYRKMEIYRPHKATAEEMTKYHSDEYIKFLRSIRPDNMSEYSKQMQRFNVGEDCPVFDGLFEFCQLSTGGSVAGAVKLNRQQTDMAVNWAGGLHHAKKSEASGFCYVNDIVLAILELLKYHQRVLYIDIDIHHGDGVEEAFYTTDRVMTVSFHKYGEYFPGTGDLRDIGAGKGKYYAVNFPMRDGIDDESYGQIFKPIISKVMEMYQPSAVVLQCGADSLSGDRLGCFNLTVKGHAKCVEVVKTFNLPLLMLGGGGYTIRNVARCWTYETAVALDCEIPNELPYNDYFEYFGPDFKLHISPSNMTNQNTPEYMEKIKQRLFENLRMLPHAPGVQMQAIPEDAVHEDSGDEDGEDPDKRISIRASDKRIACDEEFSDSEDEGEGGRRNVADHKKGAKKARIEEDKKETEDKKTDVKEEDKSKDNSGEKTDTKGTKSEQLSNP
UniProt O15379, whole entry: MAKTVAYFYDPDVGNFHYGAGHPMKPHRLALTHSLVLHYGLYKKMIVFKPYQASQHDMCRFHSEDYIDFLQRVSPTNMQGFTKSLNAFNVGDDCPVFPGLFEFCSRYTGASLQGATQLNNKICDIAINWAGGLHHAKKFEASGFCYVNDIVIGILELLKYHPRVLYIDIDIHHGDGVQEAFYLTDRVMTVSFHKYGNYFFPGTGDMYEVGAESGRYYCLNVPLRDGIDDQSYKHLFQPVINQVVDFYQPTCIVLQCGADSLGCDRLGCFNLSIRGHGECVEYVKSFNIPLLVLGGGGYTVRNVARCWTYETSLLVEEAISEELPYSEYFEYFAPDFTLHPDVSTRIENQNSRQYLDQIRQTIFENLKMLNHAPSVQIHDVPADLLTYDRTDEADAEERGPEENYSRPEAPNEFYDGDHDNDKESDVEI
UniProt Q9UKL0, 86-485 partner limits assumed: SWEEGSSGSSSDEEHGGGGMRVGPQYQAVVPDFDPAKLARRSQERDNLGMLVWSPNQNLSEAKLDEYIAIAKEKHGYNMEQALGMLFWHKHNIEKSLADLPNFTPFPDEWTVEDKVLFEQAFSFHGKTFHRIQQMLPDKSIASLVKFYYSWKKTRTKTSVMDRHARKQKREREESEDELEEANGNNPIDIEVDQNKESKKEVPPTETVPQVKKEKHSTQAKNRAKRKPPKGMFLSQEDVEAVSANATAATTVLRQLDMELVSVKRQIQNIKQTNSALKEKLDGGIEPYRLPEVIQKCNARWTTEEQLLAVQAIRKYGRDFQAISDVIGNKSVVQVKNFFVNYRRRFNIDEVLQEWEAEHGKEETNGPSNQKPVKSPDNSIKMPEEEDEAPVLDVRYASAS
UniProt Q09028, whole entry partner: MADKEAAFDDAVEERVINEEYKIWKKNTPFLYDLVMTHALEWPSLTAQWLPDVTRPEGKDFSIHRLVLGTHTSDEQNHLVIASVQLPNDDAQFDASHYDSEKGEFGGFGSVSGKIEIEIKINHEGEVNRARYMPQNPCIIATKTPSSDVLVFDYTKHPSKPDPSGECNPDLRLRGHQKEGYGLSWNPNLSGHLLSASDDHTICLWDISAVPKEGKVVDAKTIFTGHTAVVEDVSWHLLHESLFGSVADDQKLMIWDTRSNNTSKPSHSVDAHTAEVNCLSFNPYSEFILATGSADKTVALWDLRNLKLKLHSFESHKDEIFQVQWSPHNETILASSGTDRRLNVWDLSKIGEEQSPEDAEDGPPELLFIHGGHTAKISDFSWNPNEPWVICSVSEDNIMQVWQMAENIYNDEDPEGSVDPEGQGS
UniProt Q13330, 162-546 partner limits assumed: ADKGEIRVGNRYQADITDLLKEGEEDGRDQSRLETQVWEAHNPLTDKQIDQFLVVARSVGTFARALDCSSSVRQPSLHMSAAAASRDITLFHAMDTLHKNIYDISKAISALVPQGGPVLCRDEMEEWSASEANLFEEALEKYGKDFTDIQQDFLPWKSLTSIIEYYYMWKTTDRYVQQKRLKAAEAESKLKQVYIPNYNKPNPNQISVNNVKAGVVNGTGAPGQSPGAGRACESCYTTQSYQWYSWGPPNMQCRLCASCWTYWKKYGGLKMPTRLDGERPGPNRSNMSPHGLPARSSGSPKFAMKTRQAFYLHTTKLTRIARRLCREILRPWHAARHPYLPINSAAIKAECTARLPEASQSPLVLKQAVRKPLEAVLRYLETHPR
UniProt Q6PJG2, 628-887 partner limits assumed: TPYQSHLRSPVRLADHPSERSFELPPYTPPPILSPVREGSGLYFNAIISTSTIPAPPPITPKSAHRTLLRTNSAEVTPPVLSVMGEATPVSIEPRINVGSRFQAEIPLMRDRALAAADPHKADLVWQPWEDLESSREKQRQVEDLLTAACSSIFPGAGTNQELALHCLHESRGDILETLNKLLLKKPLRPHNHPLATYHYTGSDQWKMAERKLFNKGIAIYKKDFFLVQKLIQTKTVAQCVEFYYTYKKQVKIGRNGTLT
UniProt Q9H147, whole entry partner: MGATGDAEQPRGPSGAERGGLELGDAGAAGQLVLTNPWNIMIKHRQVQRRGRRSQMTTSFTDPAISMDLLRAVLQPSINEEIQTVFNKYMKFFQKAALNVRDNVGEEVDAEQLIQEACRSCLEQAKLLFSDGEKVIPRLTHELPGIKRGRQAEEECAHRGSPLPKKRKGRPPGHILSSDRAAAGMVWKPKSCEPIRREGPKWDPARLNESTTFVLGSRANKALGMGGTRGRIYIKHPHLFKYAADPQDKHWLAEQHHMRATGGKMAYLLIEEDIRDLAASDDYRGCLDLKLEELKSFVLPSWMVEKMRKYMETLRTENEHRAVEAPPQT

Experiments:
[1] = molecular target: LSD1-CoREST-HDAC1 complex (Homo sapiens, UniProt Q13547); experiment: fluorescent deacetylase assay with the LSD1-CoREST-HDAC1 complex (Example 2, FIG. 3A); assay type: biochemical; conditions: LSD1-CoREST-HDAC1 complex in vitro
H3K56ac = H3K56ac levels in E14 mouse embryonic stem cells, quantitative western blot; conditions: E14 mES cells, 24 h; CI-994 40 μM, Panobinostat 30 nM
CoREST = CoREST (Homo sapiens, UniProt Q13547); experiment: HDAC inhibition assay, CoREST complex (Table 1, run under different conditions); assay type: biochemical; conditions: read-out: CoREST IC50; Table 1 conditions (differ from FIG. 3)
NuRD = NuRD (Homo sapiens, UniProt Q13547); experiment: HDAC inhibition assay, NuRD complex (Table 1); assay type: biochemical; conditions: read-out: NuRD IC50
MiDAC = MiDAC (Homo sapiens, UniProt Q13547); experiment: HDAC inhibition assay, MiDAC complex (Table 1); assay type: biochemical; conditions: read-out: MiDAC IC50
HDAC1 = HDAC1 (Homo sapiens, UniProt Q13547); experiment: HDAC1 degradation in HCT116 cells, quantitative western blot; conditions: HCT116, screened at 0.1, 1 and 10 μM; maximum degradation irrespective of concentration
HDAC2 = HDAC2 (Homo sapiens, UniProt Q92769); experiment: HDAC2 degradation in HCT116 cells, quantitative western blot; conditions: HCT116, screened at 0.1, 1 and 10 μM; maximum degradation irrespective of concentration
HDAC3 = HDAC3 (Homo sapiens, UniProt O15379); experiment: HDAC3 degradation in HCT116 cells, quantitative western blot; conditions: HCT116, screened at 0.1, 1 and 10 μM; maximum degradation irrespective of concentration

IC50 (CoREST) [µM]	IC50 (NuRD) [µM]	IC50 (MiDAC) [µM]	HDAC1 Degrader (% Degradation) (HDAC1) [%]	HDAC 2 Degrader (% Degradation) (HDAC2)	HDAC 3 degrader (% Degradation) (HDAC3) [%]	Structure (SMILES)	IC50 [1]	H3K56 acetylation level (H3K56ac)
						Nc1ccccc1NC(=O)c1ccc(NC(=O)CCCCCNC(=O)COc2cccc3c2C(=O)N(C2CCC(=O)NC2=O)C3=O)cc1 (stereo not shown)	directly comparable to CI-994	failed to alter histone acetylation levels
3.7	3.24	17.2	28	No	43	Nc1ccccc1NC(=O)c1ccc(NC(=O)COCCOCCOCCNC(=O)COc2cccc3c2C(=O)N(C2CCC(=O)NC2=O)C3=O)cc1 (stereo not shown)		
						Cc1ncsc1-c1ccc(CNC(=O)[C@@H]2C[C@@H](O)CN2C(=O)[C@@H](NC(=O)CCCCC(=O)Nc2ccc(C(=O)Nc3ccccc3N)cc2)C(C)(C)C)cc1	directly comparable to CI-994	failed to alter histone acetylation levels
